Laboratory results taken from US8212058B2, “Fluorescent photoprobe for the imaging of endothelin receptors” (Universitatskilinikum Munster, priority 2005, dated 2012).
Where “and” joins values, the source holds several entries; their conditions need not be identical. Equal values may be shown once.

Molecular target: endothelin receptors
Test: Competition binding studies with [125I]ET-1 on mouse ventricular membrane preparations
Details: 40 pM [125I]ET-1, 10 μg mouse ventricular membranes, 37° C., 4 h

SMILES | IC50
COc1ccc(C2(O)OC(=O)C(c3ccc4c(c3)OCO4)=C2Cc2cc(OC)c(OC)c(OCCOCCOCCN3C(=O)c4ccccc4C3=O)c2)cc1 (centres unmarked) [Compound 4, 3-Benzo[1,3]dioxol-5-yl-4-(4,5-dimethoxy-3-{2-[2-(2-phthalimidoylethoxy)ethoxy]ethoxy}-benzyl)-5-hydroxy-5-(4-methoxyphenyl)-5H-furan-2-one] | 8.4 nM and 9 nM
COc1ccc(C2(O)OC(=O)C(c3ccc4c(c3)OCO4)=C2Cc2cc(OC)c(OC)c(OC)c2)cc1 (centres unmarked) [PD 156707, 3-benzo[1,3]dioxol-5-yl-5-hydroxy-5-(4-methoxyphenyl)-4-(3,4,5-trimethoxybenzyl)-5H-furan-2-one, reference compound] | 2.2 nM and 2 nM
